The text below walks through data of publication PMC7822063, “Analogues of 2′-hydroxychalcone with modified C4-substituents as the inhibitors against human acetylcholinesterase” (Journal of Enzyme Inhibition and Medicinal Chemistry, 2020).

Sequences of proteins named here, by UniProt entry; tags and fusion partners are left off. Residues count along the entry.
UniProt P22303, 32-614: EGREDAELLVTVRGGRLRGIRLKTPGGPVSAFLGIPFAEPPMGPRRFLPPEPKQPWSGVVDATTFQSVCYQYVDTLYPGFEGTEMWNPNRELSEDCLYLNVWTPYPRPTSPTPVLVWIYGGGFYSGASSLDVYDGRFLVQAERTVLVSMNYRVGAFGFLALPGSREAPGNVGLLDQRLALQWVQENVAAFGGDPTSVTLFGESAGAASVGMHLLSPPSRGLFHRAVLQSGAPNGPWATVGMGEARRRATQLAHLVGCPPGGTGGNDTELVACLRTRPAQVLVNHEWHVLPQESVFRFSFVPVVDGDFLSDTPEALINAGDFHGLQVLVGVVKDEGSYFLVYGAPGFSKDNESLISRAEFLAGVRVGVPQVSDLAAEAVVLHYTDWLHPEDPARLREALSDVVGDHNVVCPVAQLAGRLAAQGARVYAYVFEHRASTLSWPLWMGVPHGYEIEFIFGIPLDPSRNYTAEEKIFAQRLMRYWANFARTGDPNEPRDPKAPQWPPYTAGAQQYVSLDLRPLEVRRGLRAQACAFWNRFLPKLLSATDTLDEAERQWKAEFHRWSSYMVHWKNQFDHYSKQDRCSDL

A word on the inhibition: it is the percentage by which the read-out fell short of the control.

In the assay the target is human recombinant AChE (Homo sapiens, UniProt P22303). Put plainly: biochemical. As to conditions: read-out: Human AChE (% Inhibition at 10 μM).

Take `CC[N+](C)(CC)CCC[n+]1c(-c2ccccc2)c2cc(N)ccc2c2ccc(N)cc21` [Propidium, propidium iodide, reference compound]: the inhibition at 10 µM turned out to be 52%.
